Structures are written as SMILES.

The chains behind the UniProt entries cited, without tags or fusion partners. Where a name states a change or a piece, a line headed by the entry shows the natural chain unless it says otherwise.
UniProt P10275: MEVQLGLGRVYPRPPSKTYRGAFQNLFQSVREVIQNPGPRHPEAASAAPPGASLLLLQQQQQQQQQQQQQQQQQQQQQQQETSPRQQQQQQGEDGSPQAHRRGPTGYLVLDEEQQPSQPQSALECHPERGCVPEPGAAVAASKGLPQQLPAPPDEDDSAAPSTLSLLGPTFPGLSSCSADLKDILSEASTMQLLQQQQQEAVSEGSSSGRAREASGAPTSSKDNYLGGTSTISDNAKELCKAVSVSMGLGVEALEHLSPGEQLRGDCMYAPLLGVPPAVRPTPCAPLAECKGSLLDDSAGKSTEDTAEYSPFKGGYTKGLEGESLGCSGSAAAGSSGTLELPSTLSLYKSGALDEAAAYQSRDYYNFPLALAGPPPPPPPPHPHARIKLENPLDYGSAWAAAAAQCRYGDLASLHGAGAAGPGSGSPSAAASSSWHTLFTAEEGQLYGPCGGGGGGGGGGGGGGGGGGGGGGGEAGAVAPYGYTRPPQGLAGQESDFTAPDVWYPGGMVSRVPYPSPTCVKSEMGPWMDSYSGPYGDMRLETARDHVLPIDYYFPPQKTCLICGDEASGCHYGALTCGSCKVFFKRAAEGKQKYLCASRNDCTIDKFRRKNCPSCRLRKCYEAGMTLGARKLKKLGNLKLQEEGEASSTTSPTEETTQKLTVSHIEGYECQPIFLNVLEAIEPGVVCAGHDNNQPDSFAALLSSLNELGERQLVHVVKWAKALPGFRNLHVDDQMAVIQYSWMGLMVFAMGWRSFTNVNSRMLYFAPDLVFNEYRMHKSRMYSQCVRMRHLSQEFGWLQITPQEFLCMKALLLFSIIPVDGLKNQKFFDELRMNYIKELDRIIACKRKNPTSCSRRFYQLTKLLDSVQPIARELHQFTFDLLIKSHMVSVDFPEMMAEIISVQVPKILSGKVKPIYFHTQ

The test deals with AR (wild type) (Homo sapiens, UniProt P10275). The note with it: 100 nM compound, 24 hours; luciferase activity with 1 μM 5α-dihydrotestosterone = 100.
In the case of `C[C@H]1[C@@H](CO)CCN1c1ccc(C#N)c2sccc12`, the “Induction rate (%) at 100 nM Wild type” value is reported as 104%.
Then `N#Cc1ccc(N2CCC(F)C2)c2ccsc12` (centres unmarked) [Compound 100, 4-(3-fluoro-1-pyrrolidinyl)-1-benzothiophene-7-carbonitrile], with 101%; and `C[C@H]1C[C@@H](O)CN1c1ccc(C#N)c2sccc12` [Compound 109, 4-[(2S,4R)-4-hydroxy-2-methyl-1-pyrrolidinyl]-1-benzothiophene-7-carbonitrile], with 85%.
The figure for `C[C@H]1[C@H](O)CCN1c1ccc(C#N)c2sccc12` [Compound 115, 4-[(2S,3R)-3-hydroxy-2-methyl-1-pyrrolidinyl]-1-benzothiophene-7-carbonitrile] is 110%; for `C[C@H]1[C@@H](O)CCN1c1ccc(C#N)c2sccc12` [Compound 118, 4-[(2S,3S)-3-hydroxy-2-methyl-1-pyrrolidinyl]-1-benzothiophene-7-carbonitrile] it is 99%.

(Values after patent US7649001B2, “Fused benzene derivative and use” (Takeda Pharmaceutical Company Limited, priority 2002, dated 2010).)
